Reference: ChEMBL document CHEMBL2203245 (Bioorg Med Chem Lett, 2012)

Sequences of proteins named here, by UniProt entry; tags and fusion partners are left off.
UniProt P35372, whole entry: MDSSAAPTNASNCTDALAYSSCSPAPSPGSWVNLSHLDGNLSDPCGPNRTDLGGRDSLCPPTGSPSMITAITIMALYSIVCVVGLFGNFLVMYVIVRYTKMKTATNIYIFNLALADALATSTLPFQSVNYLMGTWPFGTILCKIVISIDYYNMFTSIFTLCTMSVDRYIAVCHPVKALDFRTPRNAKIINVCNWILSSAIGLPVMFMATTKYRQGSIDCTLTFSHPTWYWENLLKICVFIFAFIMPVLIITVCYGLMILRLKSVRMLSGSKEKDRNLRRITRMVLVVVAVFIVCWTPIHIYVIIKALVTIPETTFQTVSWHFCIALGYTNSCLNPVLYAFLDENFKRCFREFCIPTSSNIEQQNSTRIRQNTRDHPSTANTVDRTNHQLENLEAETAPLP

Experiments:
[1] = biological target: T1, Mu-type opioid receptor (Homo sapiens, UniProt P35372); experiment: Displacement of [3H]DAMGO from human mu opioid receptor expressed in CHO cells after 60 mins by scintillation counting; type: cell-based
[2] = biological target: T1, Mu-type opioid receptor; experiment: Partial agonist activity at human mu opioid receptor expressed in CHO cells assessed as [35S]GTPgammaS binding after 60 mins by scintillation counting; type: functional, cell-based
[3] = biological target: T1, Mu-type opioid receptor; experiment: Antagonist activity at human mu opioid receptor expressed in CHO cells assessed as inhibition of DAMGO-induced [35S]GTPgammaS binding after 60 mins by scintillation counting; type: functional, cell-based
[4] = organism: Homo sapiens; experiment: Selectivity ratio of Ki for human delta opioid receptor to Ki for human mu opioid receptor
[5] = organism: Homo sapiens; experiment: Selectivity ratio of Ki for human kappa opioid receptor to Ki for human mu opioid receptor
[6] = biological target: T1, Mu-type opioid receptor; experiment: Antagonist activity at human mu opioid receptor expressed in CHO cells assessed as inhibition of DAMGO-induced [35S]GTPgammaS binding after 60 mins by scintillation counting relative to untreated-control; type: functional, cell-based
[7] = biological target: T1, Mu-type opioid receptor; experiment: Partial agonist activity at human mu opioid receptor expressed in CHO cells assessed as [35S]GTPgammaS binding after 60 mins by scintillation counting relative to untreated-control; type: functional, cell-based

Row | SMILES | Ratio Ki [4] | Ratio Ki [5] | Imax [6] | Emax [7] | further results
1 | C[C@H]1[C@H]2Cc3ccc(C(=O)NCCc4ccc(-c5ccc(O)cc5)cc4)cc3[C@]1(C)CCN2CC1CC1 |  |  |  |  | Ki [1]: 0.0049 nM; EC50 [2]: 0.5 nM; IC50 [3]: 4.5 nM
2 | CC1C2Cc3ccc(C(=O)NCCc4ccc(-c5ccccc5O)cc4)cc3C1(C)CCN2CC1CC1 (racemic) | 43 | 375 |  |  | 
3 | CC1C2Cc3ccc(C(=O)NCCc4ccc(-c5ccc6c(c5)OCO6)cc4)cc3C1(C)CCN2CC1CC1 (racemic) |  |  | 75% | 29% | 
4 | COc1ccc2cc(CCNC(=O)c3ccc4c(c3)C3(C)CCN(CC5CC5)C(C4)C3C)ccc2c1 (racemic) | 34 | 7 |  |  | 
5 | COc1cccc(-c2ccc(CCNC(=O)c3ccc4c(c3)C3(C)CCN(CC5CC5)C(C4)C3C)cc2)c1 (racemic) |  |  | 75% | 25% | 
6 | CCOc1ccc(-c2ccc(CCNC(=O)c3ccc4c(c3)C3(C)CCN(CC5CC5)C(C4)C3C)cc2)cc1 (racemic) | 5 | 5 |  |  | 
